Patent US9624218B2 (Eli Lilly and Company, priority 2014, dated 2017)

Test system: Wnt-inducible genes (TCF/LEF luciferase reporter in DLD-1 TOPFlash cells)
Assay: cells
Details: Homo sapiens, DLD-1, 24 h, read-out: Wnt-inducible gene expression inhibition IC50, DLD-1 TOPFlash cells, 24 hours; Mean ± SEM

Row | SMILES | IC50
1 | CN1CCCc2c1nc(N1CCN(Cc3nccc(Cl)n3)CC1)[nH]c2=O [Example 41, 2-[4-[(4-Chloropyrimidin-2-yl)methyl]piperazin-1-yl]-8-methyl-3,5,6,7-tetrahydropyrido[2,3-d]pyrimidin-4-one] | 0.0138 µM
2 | CCC(c1ncccn1)N1CCN(c2nc3c(c(=O)[nH]2)CCCN3C)CC1 (single isomer, unassigned; isomer 1) [Example 11, 8-Methyl-2-[4-(1-pyrimidin-2-ylpropyl)piperazin-1-yl]-3,5,6,7-tetrahydropyrido[2,3-d]pyrimidin-4-one, Isomer 1] | 0.0281 µM
